Target: somatostatin receptor type 2 (SSTR2) (Homo sapiens, UniProt P30874)
Assay: Tryptophan fluorescence spectroscopy, binding to SSTR2
Conditions: 1 µM SSTR2, peptide 0.1 to 7 µM, 25 mM Tris, 150 mM NaCl, pH 7.5, 25 °C, excitation 280 nm, emission peak shift 328 to 338 nm

Amino acid sequences for entries named in this document (tags omitted).
UniProt P30874, whole entry, species assumed: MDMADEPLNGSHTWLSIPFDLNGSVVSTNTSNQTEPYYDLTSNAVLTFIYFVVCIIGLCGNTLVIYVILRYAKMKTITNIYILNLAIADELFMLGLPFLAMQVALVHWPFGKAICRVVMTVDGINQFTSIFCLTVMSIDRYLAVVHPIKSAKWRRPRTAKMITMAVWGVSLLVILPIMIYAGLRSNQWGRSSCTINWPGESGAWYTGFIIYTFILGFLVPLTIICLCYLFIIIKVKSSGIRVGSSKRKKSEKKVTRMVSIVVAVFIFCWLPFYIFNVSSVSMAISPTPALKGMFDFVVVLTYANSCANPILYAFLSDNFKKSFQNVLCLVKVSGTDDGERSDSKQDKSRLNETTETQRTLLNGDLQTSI

somatostatin [native somatostatin]
minimum concentration required to achieve saturation of SSTR2: at least 5.5 μM

Source: publication PMC5813187, “Enhanced Permeability and Binding Activity of Isobutylene‐Grafted Peptides” (Chembiochem, 2017)
